Source: patent publication US6858588B2, “Nitrile glycoside useful as a bioenhancer of drugs and nutrients, process of its isolation from moringa oleifera” (Council of Scientific and Industrial Research, priority 2003, dated 2005)

Experiments:
E. coli DH5α = assay: Enhancement of bacterial transformation with pUC18 plasmid DNA, DH5α; conditions: strain DH5α; niaziridin @1-10 μg/ml for 4 hours
E. coli CA8000 = assay: Enhancement of bacterial transformation with pUC18 plasmid DNA, CA8000; conditions: niaziridin @1-10 μg/ml for 4 hours

CC1OC(Oc2ccc(CC#N)cc2O)C(O)C(O)C1O (centres unmarked) [Niaziridin, NIAZIRIDIN]
Increase in transformation (E. coli DH5α): 2.3 folds | Increase in transformation (E. coli CA8000): 5.5 folds
